The test has as its target T1, human plasma renin activity (Homo sapiens, UniProt P00797).
T1 construct: the human plasma contain and the substrate: angiotensinogen, and the enzyme: renin; from tissue; host or cells: pool of human plasma
Description: Inhibition of the human plasma renin activity (P.R.A.). The format is biochemical. The conditions noted are these: 37° C., pool of human plasma. As to the method: The angiotensin I released during the reaction (the human plasma contain and the substrate: angiotensinogen, and the enzyme: renin) is measured by radioimmunological determination using a kit.
Of course, an inhibitor of the enzyme for conversion of the PMSF (phenylmethylsulphonyl fluoride) is added to the incubation medium.
Two types of experiments were carried out:
one at pH 6, which is the optimum pH for the enzyme reaction with human renin (maleate buffer, incubation: 30 minutes), and
the other at pH 7.4, which is the physiological pH (phosphate buffer, incubation: 60 minutes).
A 10^-3 M stock solution of the peptide is made up in a mixture containing equal volumes of a solution A (19 ml of methanol+1 ml of acetic acid) and a solution B (4 ml of methanol+2 ml of sodium hydroxide solution).
The subsequent dilutions of the peptide are then prepared in the appropriate buffer in accordance with the procedures described above.

Chains of the proteins cited; added tags and fusions are not shown. Residues count along the entry.
UniProt P00797, 67-406: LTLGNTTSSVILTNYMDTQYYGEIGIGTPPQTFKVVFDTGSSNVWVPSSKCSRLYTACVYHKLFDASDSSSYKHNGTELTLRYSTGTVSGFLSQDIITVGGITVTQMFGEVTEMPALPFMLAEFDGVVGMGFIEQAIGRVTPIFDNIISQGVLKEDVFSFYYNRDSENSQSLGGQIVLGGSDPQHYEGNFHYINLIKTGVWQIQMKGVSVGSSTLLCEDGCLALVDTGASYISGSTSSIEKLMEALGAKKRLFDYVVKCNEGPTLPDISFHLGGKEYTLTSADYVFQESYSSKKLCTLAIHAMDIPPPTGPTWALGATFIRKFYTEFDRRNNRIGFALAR

The mark [1] stands for this setting: pH 7.4, phosphate buffer, incubation 60 minutes, read-out: INHIBITION OF HUMAN P.R.A. (IC50) pH 7.4.

pIC50: −log10 of the molar value. Read-outs that look alike come from different tables or passages of the source.

By pIC50 is commonly meant the negative decadic logarithm of the IC50, by convention in mol/L. Regarding `COC(=O)C[C@H](O)[C@H](CC(C)C)NC(=O)[C@H](C)NC(=O)C[C@H](O)[C@H](CC(C)C)NC(=O)[C@@H](NC(=O)[C@@H](Cc1ccccc1)NC(=O)OC(C)(C)C)C(C)C` [SR 41377, Boc--(D)Phe--Val--Sta--Ala--Sta--OCH3], the pIC50 was 6.52 (pH 6, maleate buffer, incubation 30 minutes, read-out: INHIBITION OF HUMAN P.R.A. (IC50) pH 6) and 5.00 under setting [1].
On to `COC(=O)C[C@H](O)[C@H](CC(C)C)NC(=O)[C@H](C)NC(=O)C[C@H](O)[C@H](CC(C)C)NC(=O)[C@H](Cc1c[nH]c2ccccc12)NC(=O)[C@H](Cc1c[nH]c2ccccc12)NC(=O)OC(C)(C)C` [SR 41376, Boc--Trp--Trp--Sta--Ala--Sta--OMe], for which the pIC50 under setting [1] was 6.82.
The same measure, in the same setting: the figure for `CC(C)CC(=O)N[C@@H](Cc1ccccc1)C(=O)N[C@@H](Cc1ccccc1)C(=O)N[C@@H](CC(C)C)[C@@H](O)CC(=O)N[C@@H](C)C(=O)N[C@@H](CC(C)C)[C@@H](O)CC(N)=O` [SR 42238, iVa--Phe--Phe--Sta--Ala--Sta--NH2] is 6.72.

For the origin of these results see patent publication US4481192A, “Acid-protease inhibiting peptide derivatives” (SANOFI, priority 1982, dated 1984).
